The assay deals with Proto-oncogene tyrosine-protein kinase Src (Homo sapiens, UniProt P12931). In words: Binding affinity for p60 c-Src SH2 domain by scintillation proximity assay (SPA).

Amino acid sequences for entries named in this document (tags omitted). A change or cut given only in a name is not applied to a line headed by its entry.
UniProt P12931: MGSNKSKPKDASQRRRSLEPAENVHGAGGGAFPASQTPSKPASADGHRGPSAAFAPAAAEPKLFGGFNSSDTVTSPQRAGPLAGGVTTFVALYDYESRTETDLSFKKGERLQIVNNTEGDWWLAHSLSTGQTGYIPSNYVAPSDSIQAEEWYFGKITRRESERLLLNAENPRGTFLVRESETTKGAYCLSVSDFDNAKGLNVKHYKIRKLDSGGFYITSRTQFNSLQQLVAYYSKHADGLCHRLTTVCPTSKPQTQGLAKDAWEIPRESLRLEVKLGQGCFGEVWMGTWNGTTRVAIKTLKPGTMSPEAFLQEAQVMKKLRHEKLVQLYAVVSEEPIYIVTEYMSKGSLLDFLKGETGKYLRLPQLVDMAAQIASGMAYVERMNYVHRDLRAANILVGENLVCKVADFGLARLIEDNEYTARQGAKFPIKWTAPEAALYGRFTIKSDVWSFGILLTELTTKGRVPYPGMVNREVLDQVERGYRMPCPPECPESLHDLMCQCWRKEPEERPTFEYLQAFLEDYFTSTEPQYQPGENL

`CC[C@H](C)[C@H](NC(=O)[C@H](CCC(=O)O)NC(=O)[C@H](CCC(=O)O)NC(=O)[C@H](Cc1ccc(OP(=O)(O)O)cc1)NC(C)=O)C(=O)O` came in with a 50% inhibitory concentration (IC50) of 150 nM.

The IC50 is the concentration that gives 50% inhibition. Low readings indicate higher potency, high ones lower potency.

The values are drawn from ChEMBL document CHEMBL1135301, “Imidazole-based ligands of the Src SH2 protein” (Bioorg Med Chem Lett, 2002).
